Where two headings read alike, the source gives them in different places.
Legend:
[1] = in vivo; details: rat
Protocol: (§1) Hundred-and-forty (140) albino rats, Sprague-Dawley strain, bodyweight 120-135 grams, subdivided into groups each consisting of 5 animals, were used for the investigation. […] For each single compound the LD 50 was assessed according to Litchfield and Wilcoxon on the basis of the mortality rate encountered in the 7 days following the treatment.

[2] = test system: rat; experiment: in vivo
Protocol: as §1

[3] = test system: mouse
[4] = in vivo; details: mouse, iv
[5] = test system: SO2-induced experimental bronchitis; experiment: Experimental bronchitis in the rat (SO2 inhalation); format: in vivo, male rats, Sprague-Dawley strain; details: 50 mg/kg, control 4.00 ± 0.26
Protocol: The mucolytic activity of (I) was assessed in the rat subjected to a bronchopulmonary impairment induced by a SO2 inhalation.
For the purpose 40 male rats, Sprague-Dawley strain, 320-370 grams, subdivided into 4 groups each consisting of 10 elements were subjected to the following treatments:
Group 1: poisoning treatment (SO2)
Group 2: poisoning with SO2, and aerosol treatment with (I).
Group 3: poisoning with SO2, and aerosol treatment with (I).
Group 4: poisoning with SO2, and subcutaneous treatment with (I).
In any case the dose of (I) was 50 mg/kg.
For the poisoning-induction the animals were subjected to a constant air flow containing SO2 at a 0.03 percent concentration. The poisoning treatment was given for 15 days subjecting the rats, 2 hours daily, to an inhalation of SO2 for 15-minute periods. Concurrently the protective treatment with (I) was carried out in the groups in which it had been scheduled. The animals were killed on the day following the last inhalation.
The lungs were withdrawn together with the trachea, fixed in 10 percent formalin, and subjected to a macroscopic examination, dipped thereafter into the same fixing fluid for 24 hours, and thereafter for one hour in absolute ethanol.
The bronchial tree was thereafter evidenced with alcian blue; moreover, a subsequent staining was made with the Schiff's reagent in order to evidence the muchopolysaccharides. […]

[6] = test system: mouse; details: in vivo, po
[7] = in vivo; details: mouse, po

CC(S)C(=O)NCC(=O)O (stereo not shown) [compound (II), 2-mercaptopropionylglycine, reference compound]
mortality at 168 h ([1]; in vivo, im, 1250 mg/kg): 0%
No. Animals Dead ([2]; intramuscular, 1250 mg/kg, 10 animals per dose): 0
No. Animals Dead ([3]; intravenous, 1250 mg/kg (highest dose), 10 animals per dose): 3
mortality ([4]; 1250 mg/kg): 30%

CC(SC(=O)c1cccs1)C(=O)NCC(=O)O (stereo not shown) [compound (I), 2-(2-thenoylthio)-propionylglycine]
LD50 at 168 h ([1]; in vivo, im): 1800 mg/kg
mortality at 168 h ([1]; in vivo, im, 1250 mg/kg): 0%
mortality at 168 h ([1]; in vivo, im, 1500 mg/kg): 0%
mortality at 168 h ([1]; in vivo, im, 1750 mg/kg): 40%
mortality at 168 h ([1]; in vivo, im, 2000 mg/kg): 100%
mortality at 168 h ([1]; po, 1500 mg/kg): 0%
mortality at 168 h ([1]; po, 2000 mg/kg): 0%
mortality at 168 h ([1]; po, 2500 mg/kg): 0%
No. Animals Dead ([2]; in vivo, 1250 mg/kg): 0
No. Animals Dead ([2]; in vivo, 1750 mg/kg): 4
No. Animals Dead ([2]; in vivo, 2000 mg/kg): 10
No. Animals Dead ([2]; po, 1500 mg/kg): 0
No. Animals Dead ([2]; po, 2000 mg/kg): 0
Macroscopic Examination score (E, mean ± standard error) ([5]; group 2, aerosol): 1.25 ± 0.31
Macroscopic Examination score (E, mean ± standard error) ([5]; group 4, subcutaneous): 1.25 ± 0.36
No. Animals Dead ([6]; 1500 mg/kg): 0
No. Animals Dead ([6]; 2000 mg/kg): 0
No. Animals Dead ([3]; in vivo, iv, 500 mg/kg): 0
No. Animals Dead ([3]; in vivo, iv, 750 mg/kg): 0
No. Animals Dead ([3]; in vivo, iv, 1000 mg/kg): 0
mortality ([7]; 1500 mg/kg): 0%
mortality ([7]; 2000 mg/kg): 0%
mortality ([7]; 2500 mg/kg): 0%
mortality ([4]; 500 mg/kg): 0%
mortality ([4]; 750 mg/kg): 0%
mortality ([4]; 1000 mg/kg): 0%
mortality ([4]; 1250 mg/kg): 0%

From patent US4242354A, “2-(2-Thenolythio)-propionylglycine: method for its preparation and pharmaceutical formulations containing said compound” (Mediolanum Farmaceutici S.r.L., priority 1978, dated 1980)
